# Literature values, collected in patent publication US20070043105A1, “Preventive for cerebal stroke recurrence” (ASTELLAS PHARMA INC., priority 2003, published 2007).
# Tested on: SHR-SP rats
# Details: administration before attack; cited from earlier work
structure (smiles),measurement,value
COCc1c(C(C)C)nc(C(C)C)c(/C=C/[C@@H](O)C[C@@H](O)CC(=O)O)c1-c1ccc(F)cc1 [serivastatin],brain infarction volume,effective for reducing a brain infarction volume
